Source: patent US20250099448A1, “HETEROCYCLIC COMPOUNDS” (Hoffmann-La Roche Inc., priority 2022, published 2025)

Protein sequences, listed by entry. Tags and fused reporters are not part of them.
UniProt Q99685, whole entry: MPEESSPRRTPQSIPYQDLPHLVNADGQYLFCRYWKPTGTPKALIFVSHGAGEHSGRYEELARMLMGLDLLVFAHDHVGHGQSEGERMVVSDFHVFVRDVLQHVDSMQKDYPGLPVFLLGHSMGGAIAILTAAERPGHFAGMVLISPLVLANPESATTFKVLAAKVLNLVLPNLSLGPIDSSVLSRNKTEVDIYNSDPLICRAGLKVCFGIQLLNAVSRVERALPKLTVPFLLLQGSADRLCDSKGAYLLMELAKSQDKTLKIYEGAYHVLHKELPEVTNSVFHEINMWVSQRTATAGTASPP

Biological target: MAGL protein (Homo sapiens, UniProt Q99685)
Assay: 2-AG assay: MAGL inhibitory activity by hydrolysis of 2-arachidonoylglycerol to arachidonic acid, followed by mass spectrometry
Procedure: Compounds of formula (I) were profiled for MAGL inhibitory activity by determining the enzymatic activity by following the hydrolysis of the natural substrate 2-arachidonoylglycerol (2-AG) resulting in arachidonic acid, which can be followed by mass spectrometry. This assay is hereinafter abbreviated “2-AG assay”. The 2-AG assay was carried out in 384 well polypropylene assay plates. Compound dilutions were made in 100% DMSO in a polypropylene plate in 3-fold dilution steps to give a final concentration range in the assay from 12.5 μM to […]. Compound dilutions were added to MAGL protein in assay buffer (50 mM TRIS, 1 mM EDTA, 0.01% (v/v) Tween-20, 2.5% (v/v) DMSO). After shaking, the plate was incubated for 15 min at RT. To start the reaction, 2-arachidonoylglycerol in assay buffer was added. The final concentrations in the assay was […] for MAGL protein and 8 μM 2-arachidonoylglyerol. After shaking and 30 min incubation at RT, the reaction was quenched by the addition of two assay volumes of acetonitrile containing 4 μM of d8-arachidonic acid. The amount of arachidonic acid formed was traced by an online SPE system (Agilent Rapidfire) coupled to a triple quadrupole mass spectrometer. A C18 SPE cartridge (Agilent G9205A) was used in an acetonitrile/water liquid setup. The mass spectrometer was operated in negative electrospray mode following the mass transitions 303.1→259.1 for arachidonic acid and 311.1→267.0 for d8-arachidonic acid. The activity of the compounds was calculated based on the ratio of intensities [arachidonic acid/d8-arachidonic acid].

[1] = read-out: IC50 MAGL, 8 μM 2-arachidonoylglycerol, 15 min preincubation, 30 min reaction at RT, RapidFire MS readout

Structure (SMILES) | IC50 [1] [nM] | IC50 (read-out: IC50 MAGL, 8 μM 2-arachidonoylglycerol, 15 min preincubation, 30 min reaction at RT, RapidFire MS readout, tested form: tosylate) [nM]
O=C(N1CC2(CC(c3nc(C4CC4)n[nH]3)C2)C1)N1CC2(CN(Cc3snnc3C3CC3)C2)C1 | 111 | –
CS(=O)(=O)c1ccccc1CN1CC2(C1)CN(C(=O)N1CC3(CC(c4nnc(C5CC5)[nH]4)C3)C1)C2 | 34.3 | –
O=C(N1CC2(CC(Cn3cc(C(F)(F)F)nn3)C2)C1)N1CC2(CC(c3nc(C4CC(F)(F)C4)n[nH]3)C2)C1 | 707 | –
CS(=O)(=O)c1ccc(CN2CC3(C2)CN(C(=O)N2CC4(CC(c5nnc(C6CC6)[nH]5)C4)C2)C3)cc1 | 78.8 | –
O=C(N1CC2(CC(c3nc(C4CC4)n[nH]3)C2)C1)N1CC2(CN(Cc3cn(CC(F)(F)F)nn3)C2)C1 | 735 | –
O=C(N1CC(c2ccc(C3CC4(COC4)C3)nc2)C1)N1CC2(CC(c3nnc(C4CC4)[nH]3)C2)C1 | – | 4120
O=C(N1CC2(CC(c3nc(C4CC4)n[nH]3)C2)C1)N1CC2(CN(Cc3cnn(CC(F)(F)F)n3)C2)C1 | 96.8 | –
Cn1nnc(CN2CC3(C2)CN(C(=O)N2CC4(CC(c5nc(C6CC6)n[nH]5)C4)C2)C3)c1C(F)(F)F | 39.6 | –
O=C(N1CC2(CC(Cn3cc(C(F)(F)F)nn3)C2)C1)N1CC2(CC(c3nc(C4CC4)n[nH]3)C2)C1 | 42.2 | –

The remaining compounds from weak to strong by IC50 [1], led by results:

IC50 [1] [nM] | IC50 (read-out: IC50 MAGL, 8 μM 2-arachidonoylglycerol, 15 min preincubation, 30 min reaction at RT, RapidFire MS readout, tested form: tosylate) [nM] | Structure (SMILES)
10.7 | – | O=C(N1CC(c2ccc(N3CC(C(F)(F)F)C3)cn2)C1)N1CC2(CC(c3nnc(C4CC4)[nH]3)C2)C1
4.97 | – | O=C(N1CC2(CC(c3nnc(C4CC4)[nH]3)C2)C1)N1CC2(C1)CN(S(=O)(=O)c1cccc(C(F)(F)F)c1)C2
3.61 | – | O=C(N1CC2(CC(c3nc(C4CC4)n[nH]3)C2)C1)N1CC2(CN(Cc3snnc3C3CCC3)C2)C1
2.77 | – | O=C(N1CC2(CC(Cc3cn(CC(F)(F)F)nn3)C2)C1)N1CC2(CC(c3nc(C4CC4)n[nH]3)C2)C1
1.41 | – | CS(=O)(=O)c1cc(Cl)ccc1N1CCC2(CC1)CN(C(=O)N1CC3(CC(c4nnc(C5CC5)[nH]4)C3)C1)C2
1.21 | – | O=C(N1CC2(CC(Cc3cnn(CC(F)(F)F)n3)C2)C1)N1CC2(CC(c3nc(C4CC4)n[nH]3)C2)C1
0.85 | – | O=C(N1CC2(CC(Cn3ncc(C(F)(F)F)n3)C2)C1)N1CC2(CC(c3nc(C4(F)CC4)n[nH]3)C2)C1
0.3 | – | CC(C)(C)Cn1nncc1-c1ccc(C2CN(C(=O)N3CC4(CC(c5nc(C6(O)CC6)n[nH]5)C4)C3)C2)cc1
0.29 | – | O=C(N1CC2(CC(Cn3ncc(C(F)(F)F)n3)C2)C1)N1CC2(CC(c3nc(C4CC4)n[nH]3)C2)C1
0.26 | – | Cn1nc(CC2CC3(C2)CN(C(=O)N2CC4(CC(c5nc(C6CC6)n[nH]5)C4)C2)C3)c(C(F)(F)F)n1
0.18 | – | CC(C)(C)Cn1nncc1-c1ccc(C2CN(C(=O)N3CC4(CC(c5nc(C6CC6)n[nH]5)C4)C3)C2)cc1
0.05 | – | O=C(N1CC2(CC(Cc3cccc(S(=O)(=O)C(F)(F)F)c3)C2)C1)N1CC2(CC(c3nnc(C4(O)CC4)[nH]3)C2)C1

Like-named read-outs stand apart in the source and are kept apart here.
